# PubChem BioAssay AID624467 (The Scripps Research Institute Molecular Screening Center, 2012)
# Protein sequences, listed by entry. Tags and fused reporters are not part of them.
# UniProt Q96RJ0, whole entry: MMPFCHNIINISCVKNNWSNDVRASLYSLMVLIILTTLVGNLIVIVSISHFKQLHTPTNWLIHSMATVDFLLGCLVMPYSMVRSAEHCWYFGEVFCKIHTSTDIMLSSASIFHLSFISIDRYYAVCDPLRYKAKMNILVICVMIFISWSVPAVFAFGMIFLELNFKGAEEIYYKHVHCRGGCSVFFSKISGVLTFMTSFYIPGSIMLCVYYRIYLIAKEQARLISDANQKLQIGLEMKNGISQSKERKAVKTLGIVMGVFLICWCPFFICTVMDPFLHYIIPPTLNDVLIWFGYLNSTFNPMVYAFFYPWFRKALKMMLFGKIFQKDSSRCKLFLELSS
# The entries are a selection whose mix differs from that of the whole data set. Active and inactive are the calls of the source.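 The calls were made as follows: active = activation above the mean activation of all test compounds in the run plus 3 SD (cut at about 38% in these data); inactive = the rest.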
# Molecular target: Trace amine-associated receptor 1 (Homo sapiens) (UniProt Q96RJ0)
# Experiment: human TAAR1 agonists, primary screen, Fluo-8 calcium fluorescence, CHO RD-HGA16 cells (AID 624467)
# Settings: CHO RD-HGA16 TAAR1, Fluo-8 calcium fluorescence; at 3 µM; stronger effect = higher value; vehicle wells 0%, saturating PEA agonist 100%
row,Structure (SMILES),activation
1,CCC(CO)(C(=O)OC1CN2CCC1CC2)c1ccccc1 (configuration not stated),inactive: 10.8%
2,COc1cccc(C(c2nnnn2C2CCCC2)N2CCC(n3c(=O)[nH]c4ccccc43)CC2)c1OC (configuration not stated),inactive: 10.7%
3,COc1cc(OC)cc(C(=O)NCC2(N3CCOCC3)CCCCC2)c1,inactive: 4.17%
4,COc1cccc(C(=O)N(c2cc(C)cc(C)c2)C2CCN(C(=O)OC(C)(C)C)CC2)c1,inactive: 0.91%
5,CN1CCC(Nc2ccc(Cl)cc2)CC1,inactive: 0.44%
6,CN1CCC(Nc2ccc(F)c(Cl)c2)CC1,inactive: 8.19%
7,CCOc1ncccc1C(=O)NCC1(N2CCOCC2)CCCCC1,inactive: 14.5%
8,CCCOc1ccc(C(=O)NCC2(N(C)C)CCCCC2)cc1,inactive: 7.4%
9,O=c1[nH]c2ccccc2n1C1CCN(C(c2cc3ccccc3o2)c2nnnn2C2CCCC2)CC1 (configuration not stated),inactive: 2.21%
10,O=C(O)C1(Nc2ccccc2)CCN(Cc2ccccc2)CC1,inactive: 2.5%
11,NN(c1ccccc1)C1CCN(CCc2ccccc2)CC1,inactive: 4.09%
12,CC(C)(C)OC(=O)N1CCC(Nc2ccccc2)CC1,inactive: 12%
13,CC(C)(C)n1nnnc1C(c1ccnc2ccccc12)N1CCC(n2c(=O)[nH]c3ccccc32)CC1 (configuration not stated),inactive: 12.8%
14,CCN1CCC(Nc2cccc(F)c2)CC1,inactive: 5.05%
15,COc1ccc(C(c2nnnn2C2CCCCC2)N2CCC(n3c(=O)[nH]c4ccccc43)CC2)cc1 (configuration not stated),inactive: 14%
16,Cc1ccccc1NC1(C#N)CCN(Cc2ccccc2)CC1,inactive: 2.01%
17,Cn1c(=O)[nH]cc(N(CCCl)CCCl)c1=O,inactive: 5.31%
18,CN(C)c1ccc(C(=O)NCC2(N3CCCCC3)CCCCC2)cc1,inactive: -0.14%
19,O=C(NCC1(N2CCCCC2)CCCCC1)c1ccco1,inactive: 9.47%
20,O=c1[nH]c2ccccc2n1C1CCN(C(c2ccnc3ccccc23)c2nnnn2C2CCCCC2)CC1 (configuration not stated),inactive: 36.4%
21,COc1cc(OC)cc(C(=O)NCC2(N3CCCCC3)CCCCC2)c1,inactive: -1.44%
22,CCC(c1nnnn1C1CCCCC1)N1CCC(n2c(=O)[nH]c3ccccc32)CC1 (configuration not stated),inactive: 14.8%
23,CC(=O)N(c1ccccc1)C1CCNCC1,inactive: 1.46%
24,COc1cccc(C(c2nnnn2C2CCCCC2)N2CCC(n3c(=O)[nH]c4ccccc43)CC2)c1OC (configuration not stated),inactive: 16.5%
25,Cc1ccc(NC2(C#N)CCN(Cc3ccccc3)CC2)cc1,inactive: 4.38%
26,Fc1ccccc1NC1CCN(Cc2ccccc2)CC1,inactive: 0.55%
27,Cc1ccc(C(=O)NCC2(N3CCCCC3)CCCCC2)o1,inactive: -0.22%
